Literature values, collected in PMC4452637, “Identification of positron emission tomography (PET) tracer candidates by prediction of the target-bound fraction in the brain” (EJNMMI Research, 2014).

Molecular target: D2
Design: method as in ref 22, 31, 62, 82 (Additional file 1)
Details: literature value; 82 (Additional file 1); cited from earlier work

## CCN1CCC[C@H]1CNC(=O)c1c(O)c(Cl)cc(Cl)c1OC (racemic) [[^11C]Raclopride]
  Kd: 2.5 nM
